# Source: patent US9675538B2, “Anti-aging agent containing arctigenin derivative” (ROHTO Pharmaceutical Co., Ltd., priority 2012, dated 2017)
# System: B16F10 melanoma cells
# Details: 0.1% (w/v), 72 hours, compared with arctigenin
substance,measurement,value
Arctigenin Propionate [Example 2],cell toxicity (cell survival rate),lower in cell toxicity
